The numbers were not newly measured in patent US6887897B2, “Calcium glutarate supplement and phosphorus binder” (Mission Pharmacal Company, priority 2001, dated 2005), which cites them from elsewhere.

The conditions of this data set: cited from earlier work.

Consider Calcium gluconate, for which the “solubility (in words)” value was “high solubilities”.
